{
  "sequences": {"note": "The chains behind the UniProt entries cited, without tags or fusion partners. Where a name states a change or a piece, a line headed by the entry shows the natural chain unless it says otherwise.", "UniProt P19643": "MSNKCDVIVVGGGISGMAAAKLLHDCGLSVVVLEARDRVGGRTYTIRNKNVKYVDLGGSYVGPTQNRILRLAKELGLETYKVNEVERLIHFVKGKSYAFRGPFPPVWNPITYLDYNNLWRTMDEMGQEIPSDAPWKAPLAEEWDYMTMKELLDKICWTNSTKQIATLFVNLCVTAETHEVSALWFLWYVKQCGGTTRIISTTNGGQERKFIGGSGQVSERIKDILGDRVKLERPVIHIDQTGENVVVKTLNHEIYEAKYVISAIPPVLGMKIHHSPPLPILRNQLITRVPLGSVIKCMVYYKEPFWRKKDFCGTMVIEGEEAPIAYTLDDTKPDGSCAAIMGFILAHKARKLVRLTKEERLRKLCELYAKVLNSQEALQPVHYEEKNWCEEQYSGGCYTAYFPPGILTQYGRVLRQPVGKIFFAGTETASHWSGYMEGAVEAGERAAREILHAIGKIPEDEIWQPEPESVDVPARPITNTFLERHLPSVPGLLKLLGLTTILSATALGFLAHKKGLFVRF", "UniProt P21396": "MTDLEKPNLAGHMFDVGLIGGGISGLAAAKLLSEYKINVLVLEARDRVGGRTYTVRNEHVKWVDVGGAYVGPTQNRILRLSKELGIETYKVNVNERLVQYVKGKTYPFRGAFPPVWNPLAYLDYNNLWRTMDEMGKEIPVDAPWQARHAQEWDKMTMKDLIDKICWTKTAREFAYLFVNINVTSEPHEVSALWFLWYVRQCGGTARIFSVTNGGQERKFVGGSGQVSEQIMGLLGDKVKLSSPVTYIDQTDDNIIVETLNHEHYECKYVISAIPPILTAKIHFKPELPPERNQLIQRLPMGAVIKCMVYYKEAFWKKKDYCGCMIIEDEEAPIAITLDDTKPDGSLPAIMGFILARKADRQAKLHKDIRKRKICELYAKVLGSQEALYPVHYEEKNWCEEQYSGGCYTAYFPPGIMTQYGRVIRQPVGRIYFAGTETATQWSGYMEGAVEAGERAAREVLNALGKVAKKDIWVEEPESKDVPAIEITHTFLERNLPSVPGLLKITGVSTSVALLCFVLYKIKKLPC"},
  "source": "ChEMBL document CHEMBL1125023",
  "about": "“Flexible N-methyl-4-phenyl-1,2,3,6-tetrahydropyridine analogues: synthesis and monoamine oxidase catalyzed bioactivation” (J Med Chem, 1990)",
  "key": {"[1]": {"target": "Monoamine oxidase (Rattus norvegicus, UniProt P19643+P21396)", "assay": "Ratio of Kinetic constants (Km vs. Vmax).", "assay_type": "protein assay"}, "[2]": {"tested_on": "Monoamine oxidase (Rattus norvegicus)", "assay": "Percent inhibition of MAO-catalyzed oxidation in rat brain mitochondria induced by pargyline"}},
  "data": [
    {"smiles": "CN1CC=C(c2ccccc2)CC1", "values": [
      {"measurement": "Ratio", "setting": "[1]", "value": 2.2},
      {"measurement": "Inhibition", "setting": "[2]", "value": 100, "unit": "%"}
    ]}
  ]
}
